This is an account of results in PMC7555893, “Structural role of essential light chains in the apicomplexan glideosome” (Communications Biology, 2020).

The target of this assay is Pre-complex of TgELC1 with TgMyoA-C (T. gondii) (UniProt O00934). As to the kind of experiment: ITC; 200 uM protein (syringe) injected 19 x 2 uL into 20 uM pre-formed complex of light chain and MyoA peptide (cell, 1:1.1); 20 mM HEPES pH 7.5, 150 mM NaCl, 0.5 mM TCEP with 1 mM CaCl2; 25 °C; one-site model.

As to “T. gondii myosin light chain 1, short construct (MLC1-S) (domain or fragment)”, the stoichiometry N (commonly a count of units in the complex or per binding partner) stood at 0.92.
